US11008317B2, “Triazolopyridine inhibitors of myeloperoxidase and/or EPX” (priority 2016, dated 2021)

Experiments:
[1] = biological target: T1, myeloperoxidase (Homo sapiens, UniProt P05164); experiment: MPO Peroxidation Assay (Amplex Red Assay); format: biochemical; details: potency range class
T1 sequence (P05164 49-745): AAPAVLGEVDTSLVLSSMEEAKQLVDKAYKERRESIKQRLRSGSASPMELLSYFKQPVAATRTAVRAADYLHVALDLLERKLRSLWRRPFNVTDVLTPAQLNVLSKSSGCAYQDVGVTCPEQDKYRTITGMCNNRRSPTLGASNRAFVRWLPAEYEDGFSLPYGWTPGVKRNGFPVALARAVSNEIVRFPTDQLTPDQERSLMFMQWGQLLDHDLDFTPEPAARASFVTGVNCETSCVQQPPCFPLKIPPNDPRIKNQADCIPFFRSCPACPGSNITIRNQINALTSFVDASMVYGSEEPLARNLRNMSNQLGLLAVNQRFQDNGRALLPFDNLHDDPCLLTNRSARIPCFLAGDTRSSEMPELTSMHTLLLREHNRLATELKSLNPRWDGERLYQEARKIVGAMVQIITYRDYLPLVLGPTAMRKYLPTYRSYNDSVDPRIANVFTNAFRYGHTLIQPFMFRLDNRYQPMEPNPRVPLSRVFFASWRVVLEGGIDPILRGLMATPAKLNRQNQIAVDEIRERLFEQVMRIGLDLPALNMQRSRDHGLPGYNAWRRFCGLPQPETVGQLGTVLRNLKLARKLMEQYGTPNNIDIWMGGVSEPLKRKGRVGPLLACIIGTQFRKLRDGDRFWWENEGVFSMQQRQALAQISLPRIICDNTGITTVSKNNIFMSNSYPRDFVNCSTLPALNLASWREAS

[2] = biological target: T1, myeloperoxidase; experiment: MPO Chlorination Assay (APF Assay); format: biochemical; details: potency range class

IC50 [1]: 101 to 999 nM | IC50 [2]: 1 to 100 nM
SMILES: Nc1cc(C(CCNC23CC(c4ccccc4)(C2)C3)c2ccccc2)c2nn[nH]c2n1 (centres unmarked) [Example 111, 7-[1-phenyl-3-({3-phenylbicyclo[1.1.1]pentan-1-yl}amino)propyl]-3H-[1,2,3] triazolo[4,5-b] pyridin-5-amine]
